# Reference: PubChem BioAssay AID2066 (NMMLSC, 2009)
# The list shows a part of the results, in another mix than the full data. Some salts or complexes appear as unconnected parts, following the source record. Activity calls are given as the source filed them.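 The calls were made as follows: active = GFP response relative to DMSO above a set limit, near screen average plus 3 SD (cut at about 150% in these data); inconclusive = fewer than 70 cells counted for the yeast strain; inactive = the rest.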
# Experiment: modulators of AGP1-GFP expression in yeast TOR pathway, primary screen, cell-based, multiplex flow cytometry, S. cerevisiae, MLPCN library (AID 2066);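 also: median GFP channel fluorescence of the gated AGP1 strain per well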
# Details: 3 h, at 10 µM, active compounds read high, GFP as percent of DMSO wells
row,SMILES,GFP response vs DMSO
1,CCN(CC)CCCOC(=O)C(O)(c1ccccc1)c1ccccc1,inactive: 106%
2,Cc1cc(C)cc(OP(C)(N)=O)c1 (stereo not given),inactive: 100%
3,COc1ccccc1OP(C)(=O)Nc1cc(Cl)ccc1C (stereo not given),inactive: 102%
4,COc1ccccc1OP(C)(=O)Nc1ccc(C)cc1 (stereo not given),inactive: 90.4%
5,Cc1ccc(NP(C)(=O)Oc2ccccc2)c(C)c1 (stereo not given),inactive: 94.3%
6,CCOC(=O)c1ccc(NP(C)(=O)Oc2ccccc2)cc1 (stereo not given),inactive: 100%
7,O=[N+]([O-])c1ccc2c(c1)C=Nc1ccccc1O2,inactive: 98.9%
8,CC(C)(C)c1ccc(OP(C)(=O)Nc2ccc(SC(F)(F)F)cc2)cc1 (stereo not given),inactive: 91.7%
9,Cc1cccc(C)c1OP(C)(N)=O (stereo not given),inactive: 103%
10,O=[N+]([O-])c1cc([N+](=O)[O-])c(Nc2cccnc2)c([N+](=O)[O-])c1,inactive: 81%
11,CP(=O)(Nc1ccccc1Br)Oc1ccccc1 (stereo not given),inactive: 98.8%
12,COc1ccccc1OP(C)(=O)Nc1ccccc1 (stereo not given),inactive: 105%
13,CP(=S)(Nn1cnnc1)Oc1ccccc1 (stereo not given),inactive: 97.4%
14,CP(=O)(Nc1ccccn1)Oc1ccc(Cl)cc1 (stereo not given),inactive: 95.7%
15,O=[N+]([O-])c1cc([N+](=O)[O-])c(O)c([N+](=O)[O-])c1.c1ccc(Oc2ccncc2)cc1,inactive: 104%
16,CCOC(=O)c1ccc(NP(C)(=O)Oc2ccc(OC)cc2)cc1 (stereo not given),inactive: 96%
17,CCOP(C)(=S)SCC(=O)NC(C)C(=O)O (stereo not given),inactive: 110%
18,CP(=O)(NC(=O)Nc1ccccc1)Oc1ccccc1 (stereo not given),inactive: 95%
19,CCc1ccc(OP(C)(=O)N2CCN(c3ccc([N+](=O)[O-])cc3)CC2)cc1 (stereo not given),inactive: 101%
20,Cc1cc(C)cc(OP(C)(=O)Nc2ccc(SC(F)(F)F)cc2)c1 (stereo not given),inactive: 107%
21,CP(=O)(Nc1ccc(SC(F)(F)F)cc1)Oc1ccc(Cl)cc1 (stereo not given),inactive: 104%
22,Cc1cccc(C)c1OP(C)(=O)Nc1ccc(SC(F)(F)F)cc1 (stereo not given),inactive: 90%

row,SMILES,GFP response vs DMSO
1,CP(=O)(Oc1ccccc1)OC(c1ccccc1)C(F)(F)F (stereo not given),inactive: 98.9%
2,Cc1nc2ccc3ccccc3c2s1.O=[N+]([O-])c1cc([N+](=O)[O-])c(O)c([N+](=O)[O-])c1,inactive: 91%
3,O=[N+]([O-])c1cc([N+](=O)[O-])c(-c2cnn(-c3ccccc3)c2)c([N+](=O)[O-])c1,inactive: 92.9%
4,O=[N+]([O-])c1cc([N+](=O)[O-])c(-n2nnc3ccccc32)c([N+](=O)[O-])c1,inactive: 99.7%
5,CCCOc1ccc(NP(C)(=O)Oc2ccc(Cl)cc2)cc1 (stereo not given),inactive: 106%
6,CP(=O)(Nc1ccc(SC(F)(F)F)cc1)Oc1ccccc1 (stereo not given),inactive: 101%
7,CN1CCCCC1COC(=O)C1(O)c2ccccc2CCc2ccccc21 (stereo not given),inactive: 92.6%
8,COc1ccccc1OP(C)(=O)Nc1c(C)cccc1C (stereo not given),inactive: 102%
9,CC1=C2N=C(C=C3N=C(C(C)=C4[N-][C@@](C)([C@@H]5N=C1[C@](C)(CCC(=O)NC[C@@H](C)OP(=O)([O-])O[C@H]1[C@@H](O)[C@@H](n6cnc7cc(C)c(C)cc76)O[C@@H]1CO)[C@H]5CC(N)=O)[C@@](C)(CC(N)=O)[C@@H]4CCC(N)=O)[C@@](C)(CC(N)=O)[C@@H]3CCC(N)=O)C(C)(C)[C@@H]2CCC(N)=O.[C-]#N.[Co+3],inactive: 76.7%
10,O=[N+]([O-])c1cc([N+](=O)[O-])c(Nc2nnnn2CCO)c([N+](=O)[O-])c1,inactive: 102%
11,CCOC(=O)C(CC)C1=NC(C)(C)Cc2ccccc21.O=[N+]([O-])c1cc([N+](=O)[O-])c(O)c([N+](=O)[O-])c1 (stereo not given),inactive: 105%
12,CC1=NCCc2c1[nH]c1ccccc21.O=[N+]([O-])c1cc([N+](=O)[O-])c(O)c([N+](=O)[O-])c1,inactive: 101%
13,O=C(O)c1cccc(Nc2c([N+](=O)[O-])cc([N+](=O)[O-])cc2[N+](=O)[O-])c1,inactive: 104%
14,Cc1ccc(C)c(NP(C)(=O)Oc2ccccc2)c1 (stereo not given),inactive: 104%
15,Cc1cc(C)cc(OP(C)(=O)Nc2ccccn2)c1 (stereo not given),inactive: 95.5%
16,CP(=O)(Nc1cccc(Br)c1)Oc1ccccc1 (stereo not given),inactive: 112%
17,CCOC(=O)c1ccc(NP(C)(=O)Oc2cc(C)cc(C)c2)cc1 (stereo not given),inactive: 101%
18,Cc1cc(C)cc(OP(C)(=O)Nc2ccc(C)cc2C)c1 (stereo not given),inactive: 97.4%
19,COc1ccccc1OP(C)(=O)Nc1cccc(Br)c1 (stereo not given),inactive: 115%
20,COc1ccc2c(c1O)-c1c(O)c(OC)cc3c1[C@H](C2)[N+](C)(C)CC3.O=[N+]([O-])c1cc([N+](=O)[O-])c([O-])c([N+](=O)[O-])c1[O-],inactive: 95.5%
21,O=C(OC1CN2CCC1CC2)c1ccc([N+](=O)[O-])cc1 (stereo not given),inactive: 101%
22,O=C(OCCN1CCN(CCOCc2ccccc2)CC1)C(O)(c1ccccc1)c1ccccc1,inactive: 101%

row,SMILES,GFP response vs DMSO
1,CP(=O)(Nc1ccccc1F)Oc1ccccc1 (stereo not given),inactive: 82%
2,CC(C)c1ccc(OP(C)(=O)Nc2ccc(SC(F)(F)F)cc2)cc1 (stereo not given),inactive: 105%
3,CP(=O)(Nc1ccccc1)Oc1ccc(F)cc1 (stereo not given),inactive: 101%
4,O=[N+]([O-])c1cc([N+](=O)[O-])c(OC2CCCCC2O)c([N+](=O)[O-])c1 (stereo not given),inactive: 101%
5,CCCCCOc1ccc(NP(C)(=O)Oc2ccc(Cl)cc2Cl)cc1 (stereo not given),inactive: 115%
6,CCN(CC)CCCOC(=O)C(O)(c1ccccc1)C1CCCCC1 (stereo not given),inactive: 105%
7,CCOC(=O)c1ccc(NP(C)(=O)Oc2ccc(F)cc2)cc1 (stereo not given),inactive: 105%
8,COc1ccc(OP(C)(=O)Nc2ccc(SC(F)(F)F)cc2)cc1 (stereo not given),inactive: 97.9%
9,O=[N+]([O-])c1ccc(OP2(=O)COCCO2)cc1 (stereo not given),inactive: 95.1%
10,O=[N+]([O-])c1cc([N+](=O)[O-])c(NCC2CCS(=O)(=O)C2)c([N+](=O)[O-])c1 (stereo not given),inactive: 98%
11,CN(C)CCOC(=O)C(O)(c1ccccc1)C1CCCCC1 (stereo not given),inactive: 107%
12,COc1ccc(NP(C)(=O)Oc2ccccc2OC)cc1 (stereo not given),inactive: 103%
13,COc1ccc(OP(C)(=O)Nc2cccc(Br)c2)cc1 (stereo not given),inactive: 104%
14,Cc1ccccc1NP(C)(=O)Nc1ccccc1C,inactive: 90.4%
15,CP(=O)(Nc1ccc2c(c1)OCCO2)Oc1ccccc1 (stereo not given),inactive: 94.8%
16,CCOP(C)(=S)SCC(=O)NC(C)(CC)C(=O)O (stereo not given),inactive: 103%
17,CP(=O)(Nc1ccc(SC(F)(F)F)cc1)Oc1ccc(F)cc1 (stereo not given),inactive: 104%
18,CN(C)C(=O)c1c([N+](=O)[O-])cc([N+](=O)[O-])cc1[N+](=O)[O-],inactive: 103%
19,COc1ccccc1OP(C)(=O)Nc1ccccc1Br (stereo not given),inactive: 109%
20,CC(C)(C)c1ccc(OP(C)(=O)O)cc1,inactive: 103%
21,CP(=O)(Nc1ccc(Cl)cc1)Oc1ccc(F)cc1 (stereo not given),inactive: 75.4%
22,O=C(OCCCN1CCCC1)C(O)(c1ccccc1)C1CCCCC1 (stereo not given),inactive: 110%

row,SMILES,GFP response vs DMSO
1,CP(=O)(Oc1ccccc1)N1CCOC1=O (stereo not given),inactive: 102%
2,CCc1ccc(OP(C)(=O)Nc2cccnc2)cc1 (stereo not given),inactive: 99.1%
3,COc1ccc(OP(C)(=O)Nc2ccc(Br)cc2)cc1 (stereo not given),inactive: 96.3%
4,CCOC(=O)c1ccc(NP(C)(=O)Oc2ccc(Cl)cc2)cc1 (stereo not given),inactive: 92.3%
5,CP(=O)(OC12CC3CC(CC(C3)C1)C2)OC12CC3CC(CC(C3)C1)C2,inactive: 103%
6,Nc1ccc2c(ccc3cccnc32)n1.O=[N+]([O-])c1cc([N+](=O)[O-])c(O)c([N+](=O)[O-])c1,inactive: 110%
7,CP(=O)(Nc1ccc(Cl)cc1Cl)Oc1ccccc1 (stereo not given),inactive: 101%
8,CP(=O)(OCCOc1ccccc1)OCCOc1ccccc1,inactive: 108%
9,Cc1nc2ccc3ccccc3c2o1.O=[N+]([O-])c1cc([N+](=O)[O-])c(O)c([N+](=O)[O-])c1,inactive: 95.7%
10,COc1ccccc1OP(C)(=O)Nc1ccc(C)c(C)c1 (stereo not given),inactive: 89.8%
11,COc1ccc(OP(C)(=O)Nc2ccccc2Br)cc1 (stereo not given),inactive: 87.1%
12,Cc1cc(C)cc(OP(C)(=O)Nc2cccc(C(F)(F)F)c2)c1 (stereo not given),inactive: 107%
13,CP(=O)(Nc1ccccn1)Oc1ccccc1 (stereo not given),inactive: 102%
14,COc1ccccc1OP(C)(=O)Nc1ccc(C)cc1C (stereo not given),inactive: 109%
15,Cc1c(NP(C)(=O)Oc2ccc(C(C)C)cc2)c(=O)n(-c2ccccc2)n1C (stereo not given),inactive: 104%
16,O=[N+]([O-])c1cc([N+](=O)[O-])c(Nc2ccccn2)c([N+](=O)[O-])c1,inactive: 90.3%
17,COc1ccc(OP(C)(=O)Nc2ccccn2)cc1 (stereo not given),inactive: 108%
18,CN(C)CCOC(=O)C(O)(c1ccccc1)C1CCCC1 (stereo not given),inactive: 105%
19,COc1ccccc1OP(C)(=O)Nc1ccc(Br)cc1 (stereo not given),inactive: 109%
